From the supplement of paper PMC8183993
Counter-ions that a name gives are not always drawn. Most of the lowest values are listed elsewhere, so they are rarer here than in the full data.

The molecules below were run on U2OS (assay: nuclei count (viability) relative to DMSO (% of DMSO); higher = more viable cells). Conditions: 10 µM; 24 h.
Experimental: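 Primary image-based screen in U2OS cells: compounds at 10 uM for 24 h, then a 1 h o-propargyl-puromycin (OPP) pulse, click labelling, and high-throughput microscopy. Mean cytoplasmic OPP intensity and nuclei count were normalised to DMSO wells within each plate (DMSO = 100) and averaged over triplicate plates.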

Q: For N/C(=N/CCc1ccc(I)cc1)SCCCc1cnc[nH]1 [Iodophenpropit dihydrobromide], which nuclei count is on record?
A: 94.4
